Test system: primary leukemic cells from patients with CLL
Details: bendamustine low dose 10 μM, alone or in combination with forodesine

`Cl.Cn1c(CCCC(=O)O)nc2cc(N(CCCl)CCCl)ccc21` [Bendamustine] was tested, and the mean cytotoxicity was 32.95%.

— patent US11110092B2, “Methods of treating hematologic cancers” (BIOCRYST PHARMACEUTICALS, INC, priority 2007, dated 2021)
